In one assay the target is Mu-type opioid receptor (Rattus norvegicus, UniProt P33535).
Assay [1] deals with Delta-type opioid receptor (Rattus norvegicus, UniProt P33533). The experiment in a line: Displacement of [3H]DPDPE from Sprague-Dawley rat delta opioid receptor by liquid scintillation counting. In general terms: In a radioligand displacement assay an active substance lowers the binding of a labelled ligand.

Amino acid sequences for entries named in this document (tags omitted).
UniProt P33535, whole entry, looked up: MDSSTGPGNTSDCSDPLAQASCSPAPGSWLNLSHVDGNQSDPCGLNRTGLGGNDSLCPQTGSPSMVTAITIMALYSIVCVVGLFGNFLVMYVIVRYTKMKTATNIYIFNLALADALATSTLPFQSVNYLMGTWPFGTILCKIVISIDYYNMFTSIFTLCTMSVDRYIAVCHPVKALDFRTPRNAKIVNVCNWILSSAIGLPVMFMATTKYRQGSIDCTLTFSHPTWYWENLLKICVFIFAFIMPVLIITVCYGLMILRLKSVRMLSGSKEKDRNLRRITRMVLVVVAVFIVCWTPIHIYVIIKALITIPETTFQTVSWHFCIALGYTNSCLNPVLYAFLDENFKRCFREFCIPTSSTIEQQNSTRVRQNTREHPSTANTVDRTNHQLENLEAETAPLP
UniProt P33533, whole entry, looked up: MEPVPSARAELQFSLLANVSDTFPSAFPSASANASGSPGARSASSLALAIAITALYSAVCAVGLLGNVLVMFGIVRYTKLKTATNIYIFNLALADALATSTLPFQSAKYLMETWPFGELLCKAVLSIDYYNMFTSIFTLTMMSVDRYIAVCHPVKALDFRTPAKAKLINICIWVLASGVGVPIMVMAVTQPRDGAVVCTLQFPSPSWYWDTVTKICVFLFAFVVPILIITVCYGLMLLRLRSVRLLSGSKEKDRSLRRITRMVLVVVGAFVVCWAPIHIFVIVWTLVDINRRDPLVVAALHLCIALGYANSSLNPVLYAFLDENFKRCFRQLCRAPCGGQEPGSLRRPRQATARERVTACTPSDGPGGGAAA

Ki data for 1 compound are collected here from ChEMBL document CHEMBL1250436, “Evaluation of N-substitution in 6,7-benzomorphan compounds” (Bioorg Med Chem, 2010).

As to `CN(C(=O)Cc1ccc(Cl)c(Cl)c1)C1CCCCC1N1CCCC1` (configuration not stated), the Ki (as a rule, the dissociation constant of the complex between target and ligand, obtained from inhibition or displacement) was 1750 nM on Mu-type opioid receptor and > 5000 nM in assay [1].
